# Binding of CDR-mutated scFvs to a peptide of the spike HR2 region

Values reported by Engelhart et al. 2022, doi:10.1038/s41597-022-01779-4 (FLAb copy).

Target peptide (SARS-CoV-2 spike, HR2 region): PDVDLGDISGINAS

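AAYL52 was designed without a model: most single CDR substitutions and a random sample of double and triple ones. AlphaSeq pools MATa yeast showing the antibodies with MATalpha yeast showing the peptide. Pairs that bind mate more often; barcode pairs of the diploids are counted by sequencing. A regression on co-assayed BCL2-family reference pairs converts the normalised counts of each replicate to an apparent Kd. There are three technical replicates.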

Parent: Ab-95, a human scFv built as VH, the linker GGGGSGGGGSGGGGS, VL. Only the CDRs of the light chain vary.
VH: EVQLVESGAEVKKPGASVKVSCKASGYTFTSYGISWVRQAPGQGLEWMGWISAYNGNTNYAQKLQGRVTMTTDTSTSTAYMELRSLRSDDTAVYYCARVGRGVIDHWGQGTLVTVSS
VL: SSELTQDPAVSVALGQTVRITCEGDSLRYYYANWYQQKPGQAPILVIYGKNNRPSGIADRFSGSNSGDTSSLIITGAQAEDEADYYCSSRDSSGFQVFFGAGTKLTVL

Substitutions are numbered in sequence along the VL above, starting at 1 (not Kabat).
Every variant below is changed at S93 of the VL (sequential numbering).
The Kd shown is the geometric mean over detected replicates; a lower Kd is a better binder.
"nd" means that the variant was in the library but no mating with the target was seen in any replicate; the authors take this as a sign of poor binding, and no number exists.

Y30M+N52P+S93W: 1.6 µM (1 of 3 replicates).
Y29R+S92W+S93H: 2.0 µM (2 of 3 replicates).
S55M+S93D+F98T: 1.7 µM (3 of 3 replicates).
S88D+S93K+Q96F: 3.4 µM (3 of 3 replicates).
R90V+S93F: 2.3 µM (3 of 3 replicates).
R28M+S93R+V97H: 4.1 µM (3 of 3 replicates).
R28I+D91S+S93E: 410 nM (3 of 3 replicates).
D25F+P54S+S93L: 1.5 µM (3 of 3 replicates).
S93W: 130 nM (3 of 3 replicates).
G49D+S93I+F98V: 17 µM (1 of 3 replicates).
K50C+S89Y+S93P: 80 µM (1 of 3 replicates).
Y29Q+S93P+F98N: 1.5 µM (1 of 3 replicates).
L27R+P54G+S93W: 51 µM (2 of 3 replicates).
S55K+S88F+S93V: 5.4 µM (2 of 3 replicates).
S26H+S93M+F95A: 2.6 µM (3 of 3 replicates).
D25F+L27T+S93W: 1.8 µM (3 of 3 replicates).
R28D+S92Y+S93W: 1.6 µM (2 of 3 replicates).
Y31Q+S88R+S93K: 9.1 nM (3 of 3 replicates).
G24S+R90M+S93D: 2.3 µM (2 of 3 replicates).
D25Q+S92D+S93K: nd (0 of 3 replicates).
S93T+V97A: 380 nM (3 of 3 replicates).
S93D+Q96C: nd (0 of 3 replicates).
N33L+S93K+F95Y: 5.0 µM (1 of 3 replicates).
Y31Q+S93I: 92 nM (3 of 3 replicates).
G24E+S93Q+Q96K: nd (0 of 3 replicates).
D91R+S93T+Q96A: 250 nM (3 of 3 replicates).
L27R+S93R: 9.2 µM (2 of 3 replicates).
N52D+S55I+S93R: 1.6 µM (3 of 3 replicates).
G49Q+S93T+F98N: nd (0 of 3 replicates).
Y29E+K50C+S93R: 34 µM (3 of 3 replicates).
P54R+S93E+G94D: 910 nM (3 of 3 replicates).
R53D+S89Y+S93I: nd (0 of 3 replicates).
P54F+S93F+V97T: nd (0 of 3 replicates).
E23Y+S92W+S93H: 430 nM (3 of 3 replicates).
S26R+N33W+S93G: 8.6 µM (2 of 3 replicates).

Extract of 5 entries:

changes,Kd (apparent),seen in
Y30M+N52P+S93W,1.6 µM,1/3
S55K+S88F+S93V,5.4 µM,2/3
S55M+S93D+F98T,1.7 µM,3/3
G24S+R90M+S93D,2.3 µM,2/3
Y29Q+S93P+F98N,1.5 µM,1/3

For reference, the parent read 200 nM as the reference entry and 180 nM as a member of this library.
Nonspecific signal, from three strains lacking the peptide, appeared in 28% of pairings of library AAYL52, centred on 8.2 µM (5% of these signals below 800 nM); values are not corrected for it.